Paper PMC12587390, “Metabolite Identification Data in Drug Discovery, Part 1: Data Generation and Trend Analysis” (Molecular Pharmaceutics, 2025)

Key:
[1] = beagle, in vivo
[2] = Han Wistar, in vivo, po

Cn1cc(NC(=O)C2CCCCC2C(=O)c2ccc(-c3cc[nH]n3)cc2)c(C(F)(F)F)n1 (stereo not drawn) [Cmpd 16, Cn1cc(NC(=O)[C@@H]2CCCC[C@H]2C(=O)c2ccc(-c3cc[nH]n3)cc2)c(C(F)(F)F)n1]
% of the total MS area, Dog Plasma (Female) [1]: 85%
% of the total MS area, Rat Plasma (Female) ([2]; female): 85%
% of the total MS area, Rat Plasma (Male) ([2]; male): 41%
